Experimental data reported in ChEMBL document CHEMBL6074692, “Design, synthesis, and evaluation of novel benzofuran and pyrazole-based derivatives as dual AChE/BuChE inhibitors with antioxidant properties for Alzheimer's disease management” (Eur J Med Chem, 2025).

Amino acid sequences for entries named in this document (tags omitted).
UniProt P06276, whole entry: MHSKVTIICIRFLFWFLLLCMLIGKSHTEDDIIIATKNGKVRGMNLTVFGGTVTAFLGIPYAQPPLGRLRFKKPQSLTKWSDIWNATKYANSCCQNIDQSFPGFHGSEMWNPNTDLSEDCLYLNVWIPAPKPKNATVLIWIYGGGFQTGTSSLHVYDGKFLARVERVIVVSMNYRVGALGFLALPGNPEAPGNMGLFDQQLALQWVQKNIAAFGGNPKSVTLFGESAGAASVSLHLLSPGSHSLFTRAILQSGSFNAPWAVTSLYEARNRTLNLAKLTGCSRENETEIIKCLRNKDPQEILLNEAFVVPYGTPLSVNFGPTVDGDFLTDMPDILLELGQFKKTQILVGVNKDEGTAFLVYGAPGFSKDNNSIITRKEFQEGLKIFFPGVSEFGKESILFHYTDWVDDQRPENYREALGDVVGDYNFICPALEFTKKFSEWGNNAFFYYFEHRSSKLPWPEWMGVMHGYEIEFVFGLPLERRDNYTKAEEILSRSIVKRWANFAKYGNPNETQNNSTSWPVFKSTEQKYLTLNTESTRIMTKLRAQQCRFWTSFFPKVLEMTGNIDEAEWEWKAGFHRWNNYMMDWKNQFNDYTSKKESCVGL

Biological target: Cholinesterase (Homo sapiens, UniProt P06276)
Experiment: Inhibition of BuChE (unknown origin)

CCN(C)C(=O)Oc1cccc([C@H](C)N(C)C)c1 [RIVASTIGMINE]
pIC50: 4.93

pIC50: −log10 of the molar value.
